Data: ChEMBL document CHEMBL1811889, “Quinoline-4-methyl esters as human nonpancreatic secretory phospholipase A₂ inhibitors” (Bioorg Med Chem, 2011)

Target: T1, Phospholipase A2, membrane associated (Homo sapiens) (UniProt P14555)
T1 sequence (whole entry): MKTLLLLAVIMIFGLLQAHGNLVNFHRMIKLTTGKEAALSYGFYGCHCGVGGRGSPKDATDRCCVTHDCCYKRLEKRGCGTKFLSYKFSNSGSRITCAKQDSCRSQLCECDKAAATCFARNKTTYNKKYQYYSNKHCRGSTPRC
Settings: 10 uM

inhibition | SMILES
87% | COC(=O)c1cc(Cc2ccccc2OC)nc2ccc(Cl)cc12
71% | COC(=O)c1cc(-c2ccc(OC)cc2)nc2ccc(C(F)(F)F)cc12
